{
  "sequences": {"note": "By UniProt entry, the sequences of proteins in these tests, tags left out.", "UniProt P14416, whole entry": "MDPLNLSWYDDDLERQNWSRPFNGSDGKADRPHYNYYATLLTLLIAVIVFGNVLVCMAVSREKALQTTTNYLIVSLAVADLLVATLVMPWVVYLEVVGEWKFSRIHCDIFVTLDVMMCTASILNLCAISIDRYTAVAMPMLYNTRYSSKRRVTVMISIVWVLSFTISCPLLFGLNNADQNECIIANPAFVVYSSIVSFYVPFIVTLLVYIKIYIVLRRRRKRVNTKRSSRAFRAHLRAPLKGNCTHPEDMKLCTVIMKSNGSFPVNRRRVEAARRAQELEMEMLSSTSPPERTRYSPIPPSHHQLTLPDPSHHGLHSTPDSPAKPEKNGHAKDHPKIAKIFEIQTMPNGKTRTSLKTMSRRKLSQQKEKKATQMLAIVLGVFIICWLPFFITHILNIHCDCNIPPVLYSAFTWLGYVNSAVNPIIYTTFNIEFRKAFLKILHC"},
  "source": "ChEMBL document CHEMBL1255217",
  "about": "“Bioisosteric replacement leading to biologically active [2.2]paracyclophanes with altered binding profiles for aminergic G-protein-coupled receptors” (J Med Chem, 2010)",
  "key": {"[1]": {"target": "T1, D(2) dopamine receptor (Homo sapiens, UniProt P14416)", "test": "Displacement of [3H]Spiperone from human dopamine D2 long receptor expressed in CHO cells", "format": "cell-based"}, "[2]": {"target": "T1, D(2) dopamine receptor", "test": "Displacement of [3H]Spiperone from human dopamine D2 short receptor expressed in CHO cells", "format": "cell-based"}},
  "data": [
    {"smiles": "Cc1ccc(C)c(C(=O)CCCN2CCC(O)(c3cc(C)ccc3C)CC2)c1", "values": [
      {"measurement": "Ki", "setting": "[1]", "result": 55, "unit": "nM"},
      {"measurement": "Ki", "setting": "[2]", "result": 46, "unit": "nM"}
    ]}
  ]
}
